Data as given in patent publication US20200397807A1, “NICOTINYL RIBOSIDE COMPOUNDS AND THEIR USES” (MitoPower, LLC, priority 2019, published 2020).
Where “and” joins values, the source holds several entries; their conditions need not be identical. Equal entries are not always repeated.

How the values were obtained:
[1] = tested on: Jurkat cells; experiment: MNNG-induced cytotoxicity / cytoprotection (CellTiter-Blue Cell Viability Assay); conditions: at 4 hr
[2] = tested on: Jurkat cells; experiment: NAD^+ assay (total cellular NAD^+ by HPLC/LCMS), with or without MNNG; conditions: Jurkat treated with MNNG 30 min, then compounds 4 hr; n=3; FIG. 19A
[3] = tested on: HepG2 cells; experiment: as above; conditions: effect of MNNG treatment, FIG. 23
[4] = tested on: HepG2 cells; experiment: ATP assay (CellTiter-Glo); conditions: effect of MNNG treatment, FIG. 25
[5] = tested on: Jurkat cells; experiment: NAD^+/NADH ratio (NAD^+ by HPLC/LCMS, NADH production by CellTiter-Blue); conditions: effect of MNNG treatment, FIG. 20
[6] = tested on: HepG2 cells; experiment: as above; conditions: effect of MNNG treatment, FIG. 24
[7] = tested on: Jurkat cells; experiment: Total cellular NAD^+ level after MNNG-induced depletion (NAD/NADH Glo assay); format: cell-based; conditions: at 4 hr

CN(N=O)C(=N)N[N+](=O)[O-]
% cytotoxicity ([1]; 75 μM MNNG 30 min): 87%
% cytotoxicity ([1]; 150 μM MNNG 30 min): 63.2%
% cytotoxicity ([1]; 200 μM MNNG 30 min): 78%
NAD^+ level [2]: markedly reduced
NAD^+ level [3]: markedly reduced
ATP level [4]: significantly reduced
NAD^+/NADH ratio [5]: markedly reduced
NAD^+/NADH ratio [6]: markedly reduced
% depletion of NAD^+ level ([7]; 75 μM MNNG 30 min): 92.1%
% depletion of NAD^+ level ([7]; 100 μM MNNG 30 min): 76.9% and 94%
